Only a part is listed here, and it is no random draw. Active and inactive are the calls of the source.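 Rule for the calls: active = inhibition above the mean of all tested compounds plus 3 SD, set per campaign (cut at about 25% in these data); inactive = the rest.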

Chains of the proteins cited; added tags and fusions are not shown. Lines headed by an entry give the natural chain unless they say otherwise; changes in a name come on top.
UniProt O95551: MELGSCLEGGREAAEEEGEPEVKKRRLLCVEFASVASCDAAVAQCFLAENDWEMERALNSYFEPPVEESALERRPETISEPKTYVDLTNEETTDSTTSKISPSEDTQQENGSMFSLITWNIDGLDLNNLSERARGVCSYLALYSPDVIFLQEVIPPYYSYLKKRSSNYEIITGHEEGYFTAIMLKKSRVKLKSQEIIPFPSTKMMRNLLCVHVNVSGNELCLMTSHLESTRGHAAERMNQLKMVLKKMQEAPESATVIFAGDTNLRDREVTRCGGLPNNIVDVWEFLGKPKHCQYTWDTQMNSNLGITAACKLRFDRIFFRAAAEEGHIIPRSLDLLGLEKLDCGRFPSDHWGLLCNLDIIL

In this assay the target is Tyrosyl-DNA phosphodiesterase 2 (Homo sapiens) (UniProt O95551). Put plainly: blockers of TDP2 phosphodiesterase activity – biochemical, epi absorbance, recombinant enzyme, primary screen (AID 720702).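 Note: 0% = DMSO with enzyme and 100% = buffer with substrate but no TDP2.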 The following applies: recombinant TDP2, T5PNP hydrolysis, p-nitrophenol absorbance 415 nm; at 12.8 µM; hits give high values. Put shortly:
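System – recombinant human TDP2 · Amount – 120 nM TDP2 per well · Buffer or medium – Mg2+-containing Tris-HCl buffer, pH 7.5 · Reagent – T5PNP substrate, 5 mM · Dosing – 12.8 µM single point, 1% DMSO · Incubation – 2 h at 37 °C · Measured by – epi absorbance · Read-out basis – percent inhibition · Benchmarks – high control without enzyme, low control DMSO plus TDP2 · Repeats – singlicate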
Turning to `CCC1=CC2Cc3nc4ccc(Cl)cc4c(N)c3C(C1)C2` (stereo not given), the inhibition is inactive: -4.81%.

As for `CCOP(=O)(NC(=NC(C)c1ccccc1)NC(C)c1ccccc1)OCC` (stereo not given), the inhibition is inactive: 12.3%.

With `O=P1(N(CCCl)CCCl)NCCC(C(F)(F)F)O1` (stereo not given), the inhibition was inactive: -1.35%.

For the compound `Clc1n[nH]nc1-c1nn[nH][15n]1`, the inhibition was inactive: -8.08%.

With `CC(C)(C)C(=O)NC(Sc1ncccn1)C(Cl)(Cl)Cl` (stereo not given), the inhibition is inactive: 0.2%.

With `COc1ccccc1CNC(=O)COC(=O)C(O)(c1ccccc1)c1ccccc1`, the inhibition is inactive: -4.58%.

In the case of `CC1(CBr)Cn2c(nc3ccccc3c2=O)S1` (stereo not given), the inhibition was inactive: 0.89%.

As to `CC(C)/C=N\N=C(\N)N[N+](=O)[O-]`, the inhibition was inactive: 5.4%.

On to `CN(C(=O)Cc1ccc(Cl)c(Cl)c1)[C@@H]1CCCC[C@H]1N1CCCC1`, for which the inhibition was inactive: -1.89%.

On to `CN(C(=O)Cc1ccc(Cl)c(Cl)c1)C1CCCC[C@@H]1N1CCCC1` (stereo not given in full), for which the inhibition was inactive: -4.94%.

Consider `Cc1nn(-c2ccccc2)c2c1P(=O)(N1CCOCC1)N(C)C(c1ccccc1)=N2` (stereo not given), for which the inhibition is inactive: 5.07%.

Take `CC1CCC(C(C)C)C(OP(=O)(Nc2ccccn2)c2ccccc2)C1` (stereo not given): the inhibition is inactive: -1.36%.

For `Cc1ccc(C(=O)OC2CN3CCC2CC3)cc1` (stereo not given), the inhibition was inactive: 0.33%.

Turning to `O=C(/C=C/c1ccccc1)OC1CN2CCC1CC2` (stereo not given), the inhibition was inactive: -1.87%.

On to `CCCC1OP(=O)(Nc2ccccc2)OCC1CC` (stereo not given), for which the inhibition was inactive: 3.94%.

In the case of `CN(C)C1(CNC(=O)c2ccc(S(C)(=O)=O)cc2)CCCCC1`, the inhibition is inactive: -5.43%.

Take `O=P1(Nc2ncccn2)COc2ccccc2OC1`: the inhibition was inactive: -9.52%.

As for `Cc1ccc(S(=O)(=O)N(CCCN)CCCc2c(C)nc(N)[nH]c2=O)cc1`, the inhibition was inactive: -0.09%.

On to `O=[As](O)(c1cccs1)c1cccs1`, for which the inhibition is inactive: 0%.

As to `Cc1ccc(OCC(=O)OC2CN3CCC2CC3)cc1` (stereo not given), the inhibition is inactive: 6.26%.

As to `O=P1(Nc2ccc(Br)cn2)COc2ccccc2OC1`, the inhibition was inactive: -0.32%.

`NS(=O)(=O)c1cccc(NC(=O)COC(=O)C(O)(c2ccccc2)c2ccccc2)c1`: the inhibition was inactive: -4.7%.

On to `Nc1cccc([As](=O)(O)c2ccccc2)c1`, for which the inhibition was inactive: 8.14%.

As to `CCOP1(=S)c2c(C)nn(CCC#N)c2N=C(c2ccccc2F)N1C` (stereo not given), the inhibition is inactive: -0.37%.

Turning to `O=P(Nc1nccs1)(Oc1ccccc1)Oc1ccccc1`, the inhibition is inactive: 9.3%.

In the case of `Nc1ccccc1[As](=O)(O)c1ccccc1`, the inhibition was inactive: 0.69%.

On to `O=C(O)COc1ccc([As](=O)(O)O)cc1[N+](=O)[O-]`, for which the inhibition was inactive: -0.78%.

Regarding `NC(=O)Nc1ccc([As](=O)(O)O)cc1`, the inhibition is inactive: 10.2%.

For `O=[N+]([O-])c1ccc2c(c1)nnn2O`, the inhibition was inactive: 18.9%.

Take `CN(C)C(=O)c1cc([N+](=O)[O-])cc2c1-c1c(cc([N+](=O)[O-])cc1[N+](=O)[O-])C2=O`: the inhibition was inactive: -8.12%.

`CN(C(=O)Cc1ccc(Cl)c(Cl)c1)[C@H]1CC[C@@]2(CCCO2)C[C@@H]1N1CCCC1`: the inhibition is inactive: -0.61%.

For `N#CCCN(C(=O)COC(=O)C(O)(c1ccccc1)c1ccccc1)c1ccc(F)cc1`, the inhibition is inactive: 16.8%.

Turning to `CN(C(=O)Cc1ccccc1)[C@@H]1CC[C@]2(CCCO2)C[C@H]1N1CCCC1`, the inhibition was inactive: 4.32%.

Consider `CCOP1(=S)c2c(C)nn(CCC#N)c2N=C(c2ccc(F)cc2)N1C` (stereo not given), for which the inhibition was inactive: -4.32%.

Regarding `O=[As](O)(O)c1cccnc1`, the inhibition was inactive: 8.69%.

For `COc1cc(C(=O)NCC2(N3CCOCC3)CCCCC2)cc(Cl)c1OC(C)C`, the inhibition was inactive: -6.24%.

Consider `CS(=O)(=O)c1ccc(Cl)c(NC(=O)COC(=O)C(O)(c2ccccc2)c2ccccc2)c1`, for which the inhibition is inactive: -5.62%.

Consider `O=C(OC1CN2CCC1CC2)c1ccc(Cl)cc1` (stereo not given), for which the inhibition was inactive: -12.9%.

For `Cc1cccc(OCC(=O)OC2CN3CCC2CC3)c1` (stereo not given), the inhibition was inactive: -3.36%.

Take `O=[As](O)(c1cccc(O)c1)c1cccc(O)c1`: the inhibition is inactive: 4.91%.

In the case of `CCCOP(=S)(Nc1nc(N)cc(=O)[nH]1)OCCC`, the inhibition was inactive: -15%.

In the case of `Nc1cccc2c([As](=O)(O)O)cccc12`, the inhibition is active: 67.5%.

For the compound `Cc1ccc(NCCc2c([N+](=O)[O-])cc([N+](=O)[O-])cc2[N+](=O)[O-])cc1`, the inhibition was inactive: 8.56%.

On to `COc1cc(C2NCCC3(OCCO3)C2(C)C)cc(OC)c1OC` (stereo not given), for which the inhibition is inactive: -4.25%.

For `CCOP(=O)(Nc1cccc2ccccc12)OCC`, the inhibition was inactive: 5.08%.

Values taken from PubChem BioAssay AID720702 (The Scripps Research Institute Molecular Screening Center, 2013).
